Laboratory results: patent US20250109201A1 (AGENUS, published 2025)

Amino acid sequences for entries named in this document (tags omitted). Chains listed by the source or under a name are the forms on record and can include a tag or linker. Residues count along the entry.
UniProt Q8NHL6, 24-482 limits assumed: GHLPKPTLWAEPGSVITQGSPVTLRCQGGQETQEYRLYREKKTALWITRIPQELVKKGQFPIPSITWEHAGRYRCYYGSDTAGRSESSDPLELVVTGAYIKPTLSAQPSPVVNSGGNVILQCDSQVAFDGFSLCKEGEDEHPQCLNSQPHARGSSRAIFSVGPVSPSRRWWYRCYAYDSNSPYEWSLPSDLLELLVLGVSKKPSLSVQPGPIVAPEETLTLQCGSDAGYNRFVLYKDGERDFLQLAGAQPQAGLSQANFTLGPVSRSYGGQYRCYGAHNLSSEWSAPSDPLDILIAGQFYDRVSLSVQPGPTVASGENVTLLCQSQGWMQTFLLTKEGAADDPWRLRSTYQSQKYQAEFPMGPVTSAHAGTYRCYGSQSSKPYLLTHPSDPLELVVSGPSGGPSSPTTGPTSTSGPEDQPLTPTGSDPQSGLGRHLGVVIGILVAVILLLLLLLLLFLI
UniProt Q8NHL6, 24-458: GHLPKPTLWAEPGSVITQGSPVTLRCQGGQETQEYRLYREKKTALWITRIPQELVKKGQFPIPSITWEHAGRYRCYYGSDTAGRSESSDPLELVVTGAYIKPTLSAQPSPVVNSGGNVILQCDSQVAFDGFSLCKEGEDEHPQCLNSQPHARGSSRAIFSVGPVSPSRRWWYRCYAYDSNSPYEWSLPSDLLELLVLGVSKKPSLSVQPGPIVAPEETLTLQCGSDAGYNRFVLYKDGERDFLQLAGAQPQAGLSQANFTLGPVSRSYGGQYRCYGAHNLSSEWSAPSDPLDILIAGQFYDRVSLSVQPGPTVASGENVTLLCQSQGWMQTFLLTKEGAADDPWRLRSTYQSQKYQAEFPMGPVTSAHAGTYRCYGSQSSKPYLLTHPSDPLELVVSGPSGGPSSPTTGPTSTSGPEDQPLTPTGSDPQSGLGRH
UniProt Q8NHL6, 24-650: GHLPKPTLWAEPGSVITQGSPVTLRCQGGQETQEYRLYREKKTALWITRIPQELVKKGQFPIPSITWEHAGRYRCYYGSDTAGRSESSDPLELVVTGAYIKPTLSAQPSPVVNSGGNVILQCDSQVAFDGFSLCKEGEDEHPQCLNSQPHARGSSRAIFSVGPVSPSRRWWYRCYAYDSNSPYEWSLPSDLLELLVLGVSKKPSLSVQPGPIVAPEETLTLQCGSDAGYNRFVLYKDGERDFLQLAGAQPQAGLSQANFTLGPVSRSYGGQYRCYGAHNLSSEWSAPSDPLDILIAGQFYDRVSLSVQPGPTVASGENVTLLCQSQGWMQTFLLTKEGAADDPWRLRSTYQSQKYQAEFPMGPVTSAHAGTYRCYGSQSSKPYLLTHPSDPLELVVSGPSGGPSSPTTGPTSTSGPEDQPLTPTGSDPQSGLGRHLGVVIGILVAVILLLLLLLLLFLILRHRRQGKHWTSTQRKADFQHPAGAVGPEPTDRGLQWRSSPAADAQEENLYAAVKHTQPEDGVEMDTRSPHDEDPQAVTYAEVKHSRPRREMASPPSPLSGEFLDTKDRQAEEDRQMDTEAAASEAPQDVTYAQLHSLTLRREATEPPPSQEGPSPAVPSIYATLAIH
ECD-His tagged human ILT2 haplotype PE03, UniProt Q8NHL6, other isoform, or with tags, fused parts or gaps: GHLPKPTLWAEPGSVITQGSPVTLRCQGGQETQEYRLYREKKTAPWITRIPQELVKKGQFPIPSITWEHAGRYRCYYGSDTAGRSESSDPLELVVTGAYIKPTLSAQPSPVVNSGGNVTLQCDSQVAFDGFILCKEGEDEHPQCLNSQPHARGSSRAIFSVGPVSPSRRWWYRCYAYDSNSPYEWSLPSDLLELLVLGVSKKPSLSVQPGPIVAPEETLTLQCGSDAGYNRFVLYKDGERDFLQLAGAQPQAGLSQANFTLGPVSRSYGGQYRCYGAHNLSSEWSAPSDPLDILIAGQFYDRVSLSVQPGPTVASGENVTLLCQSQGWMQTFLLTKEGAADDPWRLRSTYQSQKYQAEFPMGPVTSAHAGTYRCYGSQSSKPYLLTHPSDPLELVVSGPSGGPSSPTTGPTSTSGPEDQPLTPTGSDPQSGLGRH
ECD-His tagged human ILT2 haplotype PE02, UniProt Q8NHL6, other isoform, or with tags, fused parts or gaps: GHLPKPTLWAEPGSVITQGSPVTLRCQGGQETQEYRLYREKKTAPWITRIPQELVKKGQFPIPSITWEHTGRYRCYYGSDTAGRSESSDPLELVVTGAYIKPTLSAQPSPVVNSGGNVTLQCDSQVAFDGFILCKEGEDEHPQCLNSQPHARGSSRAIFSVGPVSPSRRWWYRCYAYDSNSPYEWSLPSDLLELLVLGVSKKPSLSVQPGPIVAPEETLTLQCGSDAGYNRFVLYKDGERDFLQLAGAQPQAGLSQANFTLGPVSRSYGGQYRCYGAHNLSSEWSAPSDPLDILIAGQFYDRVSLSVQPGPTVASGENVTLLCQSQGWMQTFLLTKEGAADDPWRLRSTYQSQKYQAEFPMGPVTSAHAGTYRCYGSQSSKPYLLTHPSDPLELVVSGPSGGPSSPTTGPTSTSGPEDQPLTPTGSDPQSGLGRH

Assays:
[1] = target: T1, human ILT2 extracellular and transmembrane domains expressed on CHO cells (human, UniProt Q8NHL6, in part); assay: flow cytometry, CHO cells with high human ILT2
T1 construct: domain: extracellular and transmembrane domains; which one is told under assay; also called CHO cells expressing human ILT2 (relatively low or relatively high level); CHO-ILT2 cells
Protocol: For the antibody binding assay, the cells were seeded in a 96-well U-bottom tissue culture plate at a density of 3×10⁵ cells per well in 25 μL of PBS supplemented with 0.5% BSA, 1 mM EDTA and 0.05% sodium azide (FACS Buffer). The cells were incubated for 30 minutes at 4° C. with […] of a series dilution of anti-ILT2 antibodies or isotype control at concentrations from 10 μg/mL to 2.4 ng/mL in FACS Buffer.
After a 30-minute incubation in the dark at 4° C., the cells were washed twice with cold FACS Buffer, and the cells were analyzed by flow cytometry (BD LSR Fortessa Flow Cytometer). CHO-ILT2 cells were identified and MFI was calculated as above.

[2] = target: T2, ECD-His tagged human ILT2 haplotype PE01 (human, UniProt Q8NHL6, in part); assay: SPR, ILT2 PE01 ECD-His, average of two measurements
T2 construct: also called Human ILT2 PE01 ECD; LILRB1/ILT2 PE01; not shown: His tag
Protocol: (§1) Briefly, SPR experiments were performed using a Biacore T200 instrument, and the association rate (Kₐ), dissociation rate (Kd), and dissociation constant (KD) were calculated from each experiment using a 1:1 binding model with Biacore™ T200 Evaluation Software. Capture of antibodies from the Human Fab Capture kit (28958325, GE Healthcare) to the Series S CM5 sensor chip (29149603, GE Healthcare) was performed using the immobilization wizard for amine coupling from the Biacore™ control panel and following the manufacturer's recommendations included with the kit.
Variants of irrelevant antibody VRC01 (with IgG1, IgG1 N297A, IgG4 S228P, IgG2, or IgG2 C127S constant regions) were used as negative isotype controls. The binding kinetics are shown in Table 5 as an average from two independent measurements.

[3] = target: T3, full-length ILT2 expressed on Jurkat cells (human, UniProt Q8NHL6); assay: flow cytometry, Jurkat cells expressing human ILT2
T3 construct: whole, on cells; The Jurkat line also carries FcgRIIIa and an NFAT-luciferase reporter (Promega/G7102); also called Jurkat cells expressing human ILT2; ILT2-expressing Jurkat reporter cells

[4] = target: T1, human ILT2 extracellular and …; assay: flow cytometry, CHO cells with low human ILT2
Protocol: For the antibody binding assay, the cells were seeded in a 96-well U-bottom tissue culture plate at a density of 3×10⁵ cells per well in 25 μL of PBS supplemented with 0.5% BSA, 1 mM EDTA and 0.05% sodium azide (FACS Buffer). The cells were incubated for 30 minutes at 4° C. with 25 μL of a series dilution of anti-ILT2 antibodies or isotype control, at final concentrations ranging from 10 μg/mL to 0.2 ng/mL in FACS Buffer.
After a 30-minute incubation in the dark at 4° C., the cells were washed twice with cold FACS Buffer, and the cells were analyzed by flow cytometry (BD LSR Fortessa Flow Cytometer). CHO cells were identified using a plot of forward scatter-area (FSC-A) versus side scatter area (SSC-A) and another plot of FSC-A versus forward scatter-height (FSC-H) for selection of single cells. Samples were analyzed by sequentially gating on the single cell population and plotting histograms representing the fluorescence in the PE channel. For each sample, mean fluorescence intensity (MFI) was calculated, and the data were plotted by GraphPad Prism software.

[5] = target: T4, ECD-His tagged human ILT2 haplotype PE03 (human, UniProt Q8NHL6, in part); assay: SPR, captured antibody, ILT2 ECD-His analyte
T4 construct: also called Human ILT2 PE03 ECD (Sino biological, 16014-H08H); not shown: His tag
Protocol: (§2) The binding affinity of anti-ILT2 antibody variants with IgG1 N297A constant regions to ECD-His tagged human ILT2 haplotypes PE01, PE02, PE03 (see Table 1) was assessed by surface plasmon resonance (SPR).
as §1
(§3) Approximately 3 μg/mL of tested anti-ILT2 antibodies and controls diluted in a running buffer (10 mM HEPES, 150 mM NaCl, 3 mM EDTA, and 0.05% surfactant P20) were captured in individual flow cells of previously prepared anti Human Fab CM5 chip, keeping a single flow cell as a reference. Antibodies were captured using a 30 sec injection at a flow rate of 10 μL/min to reach about 150 resonance units (Rus). Human ILT2 ECD PE01 (diluted in the running buffer at the concentration of 30, 10, 3.3, 1.11, 0.37, 0.12 nM), and human ILT2 ECD PE02 and PE03 (diluted in the running buffer at the concentration of 33.3, 11.1, 3.7, 1.2, 0.41, 0.14 nM), were flowed over the chip surface at a flow rate of 30 μL/min with a 3-min association phase and a 10-min dissociation phase. The sensor chip was regenerated between cycles with a double 30-sec injection of 10 mM glycine, pH 2.1 at 30 μL/min followed by stabilization period of 60s. Sensorgrams were evaluated and fit to a simple Langmuir 1:1 interaction model using the global data analysis option of BIAevaluation 3.1 software. Data quality was verified by visually inspecting deviations and curve fitting, and by evaluating the parameters of Rₘₐₓ, Chi2, and Tc.

[6] = target: T2, ECD-His tagged human ILT2 haplotype PE01; assay: SPR, captured antibody, ILT2 ECD-His analyte
Protocol: as §2, §1, §3

[7] = target: T5, ECD-His tagged human ILT2 haplotype PE02 (human, UniProt Q8NHL6, in part); assay: SPR, captured antibody, ILT2 ECD-His analyte
T5 construct: also called Human ILT2 PE02 ECD; not shown: His tag
Protocol: as §2, §1, §3

B1: BA222 (antibody, human IgG4 S228P, kappa)
heavy: QVQLVQSGAEVKKPGASVKVSCKASGYTFNRYYMHWVRQAPGQGLEWMGWINPYTGGTNYAQKFQGRVTMTRDTSISTAYMELSRLRSDDTAVYYCASKQPSSDYWGQGTLVTVSSASTKGPSVFPLAPCSRSTSESTAALGCLVKDYFPEPVTVSWNSGALTSGVHTFPAVLQSSGLYSLSSVVTVPSSSLGTKTYTCNVDHKPSNTKVDKRVESKYGPPCPPCPAPEFLGGPSVFLFPPKPKDTLMISRTPEVTCVVVDVSQEDPEVQFNWYVDGVEVHNAKTKPREEQFNSTYRVVSVLTVLHQDWLNGKEYKCKVSNKGLPSSIEKTISKAKGQPREPQVYTLPPSQEEMTKNQVSLTCLVKGFYPSDIAVEWESNGQPENNYKTTPPVLDSDGSFFLYSRLTVDKSRWQEGNVFSCSVMHEALHNHYTQKSLSLSLGK
light: DIVMTQSPLSLPVTPGEPASISCRSSQSLLHSNYYNYLDWYLQKPGQSPQLLIYLGSNRASGVPDRFSGSGSGTDFTLKISRVEAEDVGVYYCLQASQAPWTFGQGTKVEIKRTVAAPSVFIFPPSDEQLKSGTASVVCLLNNFYPREAKVQWKVDNALQSGNSQESVTEQDSKDSTYSLSSTLTLSKADYEKHKVYACEVTHQGLSSPVTKSFNRGEC
[1]
  AUC: 373000
  EC50: 0.115 µg/mL
[2]
  Kd: 0.065 nM
  koff: 5.1e-05 s⁻¹
  kon: 970000 M⁻¹ s⁻¹

B2: BA215 (antibody, human IgG1, kappa)
heavy: QVQLVQSGAEVKKPGASVKVSCKASGYTFNRYYMHWVRQAPGQGLEWMGWINPYTGGTNYAQKFQGRVTMTRDTSISTAYMELSRLRSDDTAVYYCASKQPSSDYWGQGTLVTVSSASTKGPSVFPLAPSSKSTSGGTAALGCLVKDYFPEPVTVSWNSGALTSGVHTFPAVLQSSGLYSLSSVVTVPSSSLGTQTYICNVNHKPSNTKVDKRV[letters of human IgG1 Fc with changes omitted]
light: DIVMTQSPLSLPVTPGEPASISCRSSQSLLHSNYYNYLDWYLQKPGQSPQLLIYLGSNRASGVPDRFSGSGSGTDFTLKISRVEAEDVGVYYCLQASQAPWTFGQGTKVEIKRTVAAPSVFIFPPSDEQLKSGTASVVCLLNNFYPREAKVQWKVDNALQSGNSQESVTEQDSKDSTYSLSSTLTLSKADYEKHKVYACEVTHQGLSSPVTKSFNRGEC
[1]
  AUC: 392000
  EC50: 0.082 µg/mL
[2]
  Kd: 0.13 nM
  koff: 5.4e-05 s⁻¹
  kon: 430000 M⁻¹ s⁻¹
[3]
  AUC: 173000
  EC50: 0.096 µg/mL
[4]
  AUC: 14300
  EC50: 0.449 µg/mL
[5]
  Kd: 0.216 nM
  koff: 0.00011 s⁻¹
  kon: 490000 M⁻¹ s⁻¹
[6]
  Kd: 0.003 nM
  koff: 9.6e-07 s⁻¹
  kon: 280000 M⁻¹ s⁻¹
[7]
  Kd: 0.541 nM
  koff: 0.00012 s⁻¹
  kon: 230000 M⁻¹ s⁻¹

B3: BA249 (antibody, human IgG1, kappa)
heavy: QVQLVQSGAEVKKPGASVKVSCKASGYTFNRYYMHWVRQAPGQGLEWMGWINPYTGGTNYAQKFQGRVTMTRDTSISTAYMELSRLRSDDTAVYYCASKQPSSDYWGQGTLVTVSSASTKGPSVFPLAPSSKSTSGGTAALGCLVKDYFPEPVTVSWNSGALTSGVHTFPAVLQSSGLYSLSSVVTVPSSSLGTQTYICNVNHKPSNTKVDKRV[letters of human IgG1 Fc omitted]
light: DIVMTQSPLSLPVTPGEPASISCRSSQSLLHSNTYNYLDWYLQKPGQSPQLLIYLGSNRASGVPDRFSGSGSGTDFTLKISRVEAEDVGVYYCLQASQAPWTFGQGTKVEIKRTVAAPSVFIFPPSDEQLKSGTASVVCLLNNFYPREAKVQWKVDNALQSGNSQESVTEQDSKDSTYSLSSTLTLSKADYEKHKVYACEVTHQGLSSPVTKSFNRGEC
[1]
  AUC: 349000
  EC50: 0.117 µg/mL
[2]
  Kd: 0.13 nM
  koff: 4.8e-05 s⁻¹
  kon: 380000 M⁻¹ s⁻¹

B4: BA250 (antibody, human IgG1, kappa)
heavy: QVQLVQSGAEVKKPGASVKVSCKASGYTFNRYYMHWVRQAPGQGLEWMGWINPYTGGTNYAQKFQGRVTMTRDTSISTAYMELSRLRSDDTAVYYCASKQPSSDYWGQGTLVTVSSASTKGPSVFPLAPSSKSTSGGTAALGCLVKDYFPEPVTVSWNSGALTSGVHTFPAVLQSSGLYSLSSVVTVPSSSLGTQTYICNVNHKPSNTKVDKRV[letters of human IgG1 Fc omitted]
light: DIVMTQSPLSLPVTPGEPASISCRSSQSLLHSNYYNYLDWYLQKPGQSPQLLIYLGSNRASGVPDRFSGSGSGTDFTLKISRVEAEDVGVYYCLQASQAPWTFGQGTKVEIKRTVAAPSVFIFPPSDEQLKSGTASVVCLLNNFYPREAKVQWKVDNALQSGNSQESVTEQDSKDSTYSLSSTLTLSKADYEKHKVYACEVTHQGLSSPVTKSFNRGEC
[1]
  AUC: 384000
  EC50: 0.087 µg/mL
[2]
  Kd: 0.11 nM
  koff: 4.8e-05 s⁻¹
  kon: 430000 M⁻¹ s⁻¹
